In patent US20240115729A1, “COMPOSITIONS AND METHODS FOR TARGETED ANTIFIBROTIC THERAPY IN CHRONIC PANCREATITIS” (University of Virginia Patent Foundation, priority 2021, published 2024):

Target: α-smooth muscle actin (α-SMA) (mouse) (UniProt P62737)
Test: IF colocalization (JACoP) of VT680 phage with marker, CP mouse pancreas sections

| Substance | mean Manders' correlation coefficient (MCC), fraction of phage overlapping cell marker |
| --- | --- |
| MDLSLKP (SEQ ID NO: 19) phage clone (peptide) | 0.16 |
| MNSIAIP (SEQ ID NO: 20) phage clone (peptide) | 0.07 |
| SLPLGPM (SEQ ID NO: 26) phage clone (peptide) | 0.15 |
| KTYVPTT (SEQ ID NO: 14) phage clone (peptide) | 0.52 |
| HPYSPLR (SEQ ID NO: 11) phage clone (peptide) | 0.13 |
| SNSQDLH (SEQ ID NO: 28) phage clone (peptide) | 0.05 |
